PubChem BioAssay (NCATS)
The list shows a part of the results, in another mix than the full data. Results filed as inconclusive are left out. Activity calls are given as the source filed them. Calls come from the whole dose curve; as a rule, active = well fitted cell-killing curve with a large enough effect; inconclusive = small, poorly fitted or top-dose-only effect; inactive = flat fitted curve, though single readings scatter.

Experiments:
[1] = Cell Viability - LYMP2-021 (AID 974); settings: LYMP2-021 lymphoblastoid cells viability; at 92.2 µM (top of the series);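 note: compound exposure lasts 24 hours at 37 °C; % is set by controls: 0 for no effect and ±100 for the full control effect; nearly all actives have a fitted effect of over 55% in size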
How it was run: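 Human lymphoblastoid LYMP2-021 cells, 2500/well in complete medium, treated 24 hours at 37 C. Intracellular ATP by CellTiter-Glo luminescence (30 min, RT); AC50 from Hill fits of concentration-response.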

[2] = Cell Viability - LYMP2-023 (AID 975); settings: LYMP2-023 lymphoblastoid cell viability; at 92.2 µM (top of the series);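 note: cellular ATP measured by luciferase luminescence as viability proxy; plate controls were DMSO only for no effect and 92 µM tetraoctylammonium bromide control for full effect; nearly all actives have a fitted effect of over 55% in size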
How it was run: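 LYMP2-023 human lymphoblastoid cells, 2500/well, preincubated 5 hr at 37 C, then compound-treated 24 hr at 37 C in complete medium. CellTiter-Glo luminescence (ATP) after 30 min at room temperature; AC50 from Hill-equation fits; tetraoctylammonium bromide positive control.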

[3] = Cell Viability - LYMP2-025 (AID 976); settings: LYMP2-025 lymphoblastoid cell viability; at 92.2 µM (top of the series);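 note: plate controls were DMSO only for no effect and tetraoctylammonium bromide control for full effect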
How it was run: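 Human lymphoblastoid LYMP2-025 cells, 2500/well, exposed 24 h at 37 C in complete medium in 1536-well qHTS. Viability as cellular ATP by CellTiter-Glo luminescence; AC50 from Hill fits of concentration-response data.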

[4] = Cell Viability - LYMP2-002 (AID 977); settings: LYMP2-002 lymphoblastoid cell viability, qHTS; at 92.2 µM (top of the series);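 note: compound exposure lasted 24 h at 37 °C; plate controls were DMSO only for no effect and 92 µM tetraoctylammonium bromide for full effect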
How it was run: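 Cytotoxicity is scored as concentration-dependent loss of cellular ATP in a human lymphoblastoid line after 24 hr compound treatment at 37 C. AC50 is obtained by modelling concentration-response data with the Hill equation.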

[5] = Cell Viability - LYMP2-006 (AID 978); settings: LYMP2-006 lymphoblastoid cell viability, qHTS; at 92.2 µM (top of the series); note: % is set by controls: 0 for no effect and ±100 for the full control effect; nearly all actives have a fitted effect of over 60% in size
How it was run: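 In this cytotoxicity screen, the human lymphoblastoid line grew in complete medium with test compounds for 24 hr at 37 C. Cellular ATP served as the viability signal.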

[6] = Cell Viability - LYMP2-007 (AID 979); settings: LYMP2-007 lymphoblastoid cell viability; at 92.2 µM (top of the series);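 note: cells exposed to compound for 24 h before reading; 0% = DMSO only and the negative end = 92 µM tetraoctylammonium bromide; nearly all actives have a fitted effect of over 60% in size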
How it was run: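 Human lymphoblastoid LYMP2-007 cells (2500/well) preincubated 5 h at 37 C, then treated 24 h at 37 C in complete medium. Viability by CellTiter-Glo ATP luminescence after 30 min at room temperature; AC50 from Hill fits.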

[7] = Cell Viability - LYMP2-008 (AID 980); settings: LYMP2-008 lymphoblastoid cell viability, qHTS; at 92.2 µM (top of the series); note: % is set by controls: 0 for no effect and ±100 for the full control effect; nearly all actives have a fitted effect of over 60% in size
How it was run: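 LYMP2-008 lymphoblastoid cells (2500/well) plated 5 h, then treated 24 h at 37 C in complete medium. Viability read as intracellular ATP by CellTiter-Glo luminescence after 30 min at room temperature; AC50 from Hill fits.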

[8] = Cell Viability - LYMP2-010 (AID 981); note: % is set by controls: 0 for no effect and ±100 for the full control effect; nearly all actives have a fitted effect of over 55% in size
How it was run: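 Human lymphoblastoid LYMP2-010 cells (2500/well) treated 24 h at 37 C in complete medium; viability read as intracellular ATP by CellTiter-Glo luminescence. AC50 from Hill fits of concentration-response data; tetraoctylammonium bromide positive control.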

[9] = Cell Viability - LYMP2-012 (AID 982); settings: LYMP2-012 lymphoblastoid cell viability qHTS; at 92.2 µM (top of the series);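 note: cellular ATP by luciferase luminescence where a drop means cytotoxicity; cells exposed to compound for one day before reading; 0% = DMSO only and full loss = 92 µM tetraoctylammonium bromide; nearly all actives have a fitted effect of over 55% in size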
[10] = Cell Viability - LYMP2-014 (AID 983); settings: LYMP2-014 lymphoblastoid cells, viability qHTS; at 92.2 µM (top of the series);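 note: plate controls were DMSO only for no effect and 92 µM tetraoctylammonium bromide for full effect; nearly all actives have a fitted effect of over 50% in size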
How it was run: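 LYMP2-014 human lymphoblastoid cells, 2500/well, treated 24 h at 37 C in complete medium; viability by CellTiter-Glo ATP luminescence after 30 min at room temperature. AC50 from Hill fits of qHTS concentration-response; tetraoctylammonium bromide positive control.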

[11] = Cell Viability - LYMP2-016 (AID 984); settings: LYMP2-016 lymphoblastoid cell viability, qHTS; at 92.2 µM (top of the series)
How it was run: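 Concentration-dependent ATP depletion measured in LYMP2-016 lymphoblastoid cells, 24 h, 37 C; luciferase-based luminescent detection; Hill-equation AC50.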

[12] = Cell Viability - LYMP2-018 (AID 985); settings: LYMP2-018 lymphoblastoid cells, viability (qHTS); at 92.2 µM (top of the series);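 note: compound exposure lasted 24 hr at 37 °C; plate controls were DMSO only for no effect and tetraoctylammonium bromide at 92 µM for full effect; nearly all actives have a fitted effect of over 50% in size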
How it was run: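 Human lymphoblastoid LYMP2-018 cells, 2500/well, settled 5 hr at 37 C then exposed to compound 24 hr at 37 C; intracellular ATP measured by CellTiter-Glo luminescence. AC50 from Hill-equation concentration-response fits.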

[13] = Cell Viability - LYMP2-020 (AID 986); settings: LYMP2-020 lymphoma cell viability, qHTS; at 92.2 µM (top of the series)
How it was run: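 Human lymphoblastoid LYMP2-020 cells (2500/well) preincubated 5 h at 37 C, then treated 24 h at 37 C. Viability measured as intracellular ATP by CellTiter-Glo luminescence after 30 min at room temperature; AC50 from Hill fits.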

[14] = Cell Viability - LYMP2-022 (AID 987); settings: LYMP2-022 lymphoblastoid cell viability; at 92.2 µM (top of the series)
How it was run: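 LYMP2-022 lymphoblastoid cells (2500/well, complete medium) were treated with compounds for 24 hours at 37 C; intracellular ATP was then read by CellTiter-Glo luminescence after 30 min at room temperature. AC50 values were derived from Hill-equation fits.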

[15] = Cell Viability - LYMP2-024 (AID 988); settings: LYMP2-024 lymphoblastoid cell viability; at 92.2 µM (top of the series);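 note: plate controls were DMSO only for no effect and 92 µM tetraoctylammonium bromide for full effect; nearly all actives have a fitted effect of over 60% in size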
How it was run: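 Human lymphoblastoid LYMP2-024 cells (2500/well) rested 5 hr, then treated with compound for 24 hr at 37 C in complete medium. Viability was measured as intracellular ATP by CellTiter-Glo luminescence. AC50 values came from Hill-equation fits.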

[16] = Cell Viability - LYMP2-026 (AID 989); settings: LYMP2-026 lymphoblastoid cell viability, qHTS; at 92.2 µM (top of the series); note: % is set by controls: 0 for no effect and ±100 for the full control effect; nearly all actives have a fitted effect of over 50% in size
How it was run: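 Human lymphoblastoid LYMP2-026 cells, 2500/well, exposed to compound 24 h at 37 C in complete medium. Viability as intracellular ATP by CellTiter-Glo luminescence; AC50 from Hill fits of qHTS concentration-response.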

[17] = Cell Viability - LYMP1-002 - Assay at 24 hr (AID 993); settings: LYMP1-002 lymphoblastoid cells viability; at 92.2 µM (top of the series); note: % is set by controls: 0 for no effect and ±100 for the full control effect
How it was run: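 Human lymphoblastoid LYMP1-002 cells (2500/well) treated 24 h at 37 °C; viability as intracellular ATP by CellTiter-Glo luminescence. Tetraoctylammonium bromide as positive control; AC50 from Hill-equation fits of qHTS concentration-response.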

[18] = Cell Viability - LYMP1-002 - Assay at 40 hr (AID 994); settings: LYMP1-002 lymphoblastoid cell viability; at 92.2 µM (top of the series)
How it was run: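 LYMP1-002 human lymphoblastoid cells (2500/well, complete medium) were treated with compounds for 40 hr at 37 C. Intracellular ATP was measured by CellTiter-Glo luminescence, and AC50 values came from Hill-equation fits of concentration-response data; tetraoctylammonium bromide was the positive control.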

O=[N+]([O-])[O-].[NH4+]
inactive: activity change, negative = cytotoxicity [1] -6.06% | activity change, negative = cytotoxicity [2] 0.0392% | activity change, negative = cytotoxicity [3] -3.81% | activity change, negative = cytotoxic [4] -1.58% | activity change, negative = cytotoxicity [5] -2.53% | activity change, negative = cytotoxicity [6] 0.056% | activity change, negative = cytotoxicity [7] -8.07% | Potency [8] | activity change, negative = cytotoxicity [9] -0.446% | activity change, negative = cytotoxicity [10] -15.2% | activity change, negative = cytotoxicity [11] -5.47% | activity change, negative = cytotoxicity [12] -5.43% | activity change, negative = viability loss [13] -1.6% | viability change, negative = cytotoxic [14] 0.293% | activity change, negative = cytotoxicity [15] 4.85% | activity change, negative = cytotoxic [16] -6.11% | activity change, negative = cytotoxicity [17] 3.73% | viability change, negative = cytotoxic [18] -1.21%

Cc1ccc([N+](=O)[O-])c([N+](=O)[O-])c1
inactive: activity change, negative = cytotoxicity [3] -17.9% | activity change, negative = cytotoxic [4] -25.7% | activity change, negative = cytotoxicity [9] -25.2% | activity change, negative = cytotoxicity [17] -7.91%

O=[N+]([O-])c1cccc([N+](=O)[O-])c1
inactive: activity change, negative = cytotoxicity [1] 0.0239% | activity change, negative = cytotoxicity [2] -5.24% | activity change, negative = cytotoxicity [3] -12.2% | activity change, negative = cytotoxic [4] -4.87% | activity change, negative = cytotoxicity [5] 3.25% | activity change, negative = cytotoxicity [6] -5.89% | activity change, negative = cytotoxicity [7] -3.44% | activity change, negative = cytotoxicity [9] -4.18% | activity change, negative = cytotoxicity [10] -10.5% | activity change, negative = cytotoxicity [11] -16.6% | activity change, negative = cytotoxicity [12] -1.49% | activity change, negative = viability loss [13] -5.5% | viability change, negative = cytotoxic [14] -12.1% | activity change, negative = cytotoxicity [15] -7.82% | activity change, negative = cytotoxic [16] -3.61% | activity change, negative = cytotoxicity [17] 2.53% | viability change, negative = cytotoxic [18] -10.9%

[NH4+].[O-][Cl+3]([O-])([O-])[O-]
inactive: activity change, negative = cytotoxicity [1] 2.34% | activity change, negative = cytotoxicity [3] -0.0743% | activity change, negative = cytotoxic [4] -6.45% | activity change, negative = cytotoxicity [6] 5.66% | activity change, negative = cytotoxicity [7] -1.17% | Potency [8] | viability change, negative = cytotoxic [14] -22.3% | activity change, negative = cytotoxicity [15] 1.31% | activity change, negative = cytotoxicity [17] 0.659% | viability change, negative = cytotoxic [18] -4.29%

Cc1ccc([N+](=O)[O-])cc1[N+](=O)[O-]
inactive: activity change, negative = cytotoxicity [1] -3.53% | activity change, negative = cytotoxicity [2] -3.95% | activity change, negative = cytotoxicity [3] -10.8% | activity change, negative = cytotoxic [4] -14.1% | activity change, negative = cytotoxicity [5] 6.86% | activity change, negative = cytotoxicity [6] 0.422% | activity change, negative = cytotoxicity [7] -5.12% | Potency [8] | activity change, negative = cytotoxicity [9] -13.7% | activity change, negative = cytotoxicity [10] 2.61% | activity change, negative = cytotoxicity [11] -7.05% | activity change, negative = cytotoxicity [12] -10.4% | activity change, negative = viability loss [13] 1.82% | viability change, negative = cytotoxic [14] -10.2% | activity change, negative = cytotoxicity [15] -7.11% | activity change, negative = cytotoxic [16] 6.73% | activity change, negative = cytotoxicity [17] -1.07% | viability change, negative = cytotoxic [18] -9.52%
